Assay [1] has as its target W36/59F mutant of the cereblon homologue from M. gryphiswaldense (Magnetospirillum gryphiswaldense, UniProt A4TVL0, W36F/W59F). The assay is described as follows: biochemical.
Assay [2] deals with T1, CRBN homologue mutant W36/59F from M. gryphiswaldense (Magnetospirillum gryphiswaldense, UniProt A4TVL0, W36F/W59F).
T1 construct: His tag (vector pETHis_1a), TEV-cleavable (N, cleaved yes); made in house; host or cells: E. coli C41
The experiment in a line: biochemical. In kind it is binding. The source says: Depending on the binding affinity it appears useful to determine the optimal concentration range for the assay in advance. It is further recommended to test for a possible quenching effect of the candidate substance on tryptophan fluorescence. This quenching of tryptophan fluorescence is still measurable at 440 nm and influences the intensity and reliability of the FRET signal when using MANT-uracil. For that reason we measured in parallel the emission at 440 nm for the following three reaction mixtures containing: • 1. CRBN homologue mutant W36/59F from M. gryphiswaldense (final 3µM) and several concentrations of candidate substance in assay buffer; • 2. several concentrations of candidate substance in assay buffer, • 3. CRBN homologue mutant W36/59F from M. gryphiswaldense (final 3µM), MANT-uracil (final 3 µM) and several concentrations of candidate substance in assay buffer.
As it is shown for uridine in Fig. 8, we titrated increasing concentrations of uridine in 100 µl of a 3 µM protein solution in assay buffer and the according references as described above (example 5). The measurements were performed as described.

The chains behind the UniProt entries cited, without tags or fusion partners.
UniProt A4TVL0, entry or part of it W36F/W59F: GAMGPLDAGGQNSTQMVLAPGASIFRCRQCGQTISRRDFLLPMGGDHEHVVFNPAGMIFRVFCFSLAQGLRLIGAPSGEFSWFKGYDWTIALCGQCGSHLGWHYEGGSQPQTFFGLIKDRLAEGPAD

Usually IC50 stands for the concentration at which inhibition is half-maximal. Lower therefore signals greater potency. In general, Kd refers to the constant that tells how readily two partners part at equilibrium. Higher therefore signals lower affinity. In the case of `O=C1CCC(N2C(=O)c3ccccc3C2=O)C(=O)N1` (stereo not drawn) [thalidomide, α-phthalimido glutarimide], the IC50 in assay [1] worked out at 3.81 µM. Further, the Kd in assay [2] stood at 5.8 µM.

The values above are taken from patent EP2757379A1, “Method to screen for the teratogenic potential of substances” (priority 2013, dated 2014).
